Hits are enriched below; roughly 0.34% of the tested compounds scored in any of these assays.
TRPML1 inh: blocks the human TRPML1 channel | Q9GZU1 | TRPML1-inducible cells, Ca2+ dye fluorescence, FDSS; hits give low values; inhibition of EC80 agonist-evoked calcium signal | activity change, negative = inhibition, % (no concentration beside the values) | actives 0.02% (n = 390,000) | AID 624415; in the data active = activity change below about -50%; inconclusive = between about -30% and that limit;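 also: stimulus is agonist 54-4 at its EC80 concentration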
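Tet-induced TRPML1-DL cells loaded with Ca8 no-wash calcium dye were read kinetically on FDSS. Compound addition was followed by EC80 agonist 54-4 (4 uM final); inhibition was read over 110 s.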
miR-21 reporter: raises the signal of a miR-21 reporter; AID 2288; 340,000 tested, under 10 active; Potency, µM (doses to about 38.3 µM); HeLa miR-21 FLuc reporter, luciferase, 48 h; active = well fitted rising curve with a large enough effect; inconclusive = small, poorly fitted or top-dose-only effect; inactive = no such curve, though single readings can be large or run the other way;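 note: miR-21 action dims this reporter so a rising signal means less miR-21 action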
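HeLa cells stably expressing CMV-driven firefly luciferase with a downstream miR-21 binding sequence, endogenously expressing miR-21, were treated with titrations (up to about 40uM final) for 48 hours at 37 degree Celsius. Luciferase luminescence was read after lysis.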
TRPML1 ag: agonists of human TRPML1 channel | Q9GZU1 | TRPML1-expressing cells, Ca2+ dye fluorescence, FDSS | activation, % (test concentration not listed) | actives 0.12% (n = 410,000); in the data active = activation above about 50%; inconclusive = mostly about 30% to 49%
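Tet-induced TRPML1-DL cells, 1,500 per well, cultured overnight, were loaded with a no-wash Ca2+ dye for 45–90 min. Calcium fluorescence was recorded on the FDSS for 110 s after compound addition, before the EC80 agonist (4 uM 54-4) was added.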
uPA surface inh: inhibitors of cell surface uPA generation | cell surface uPA generation assay, qHTS | Potency, µM (top dose mostly 38.3 µM), most hits filed as inhibitors | actives 0.31% (n = 330,000) | AID 540303; active = well fitted inhibition curve with a large enough effect; inconclusive = small, poorly fitted or top-dose-only effect; inactive = no such curve, though single readings can be large or run the other way; tested in mouse RAW 264.7 cells; also: nearly all actives have a fitted effect of over 55% in size
Of the large screens only hits and unclear results are named; the others gave an inactive call.

CC(=O)N1N=C(c2ccc(C)cc2)OC1c1ccc(Br)cc1 (centres undefined)	none
CCOc1ccc(Br)cc1C1=NN(C(C)=O)C(c2ccc([N+](=O)[O-])s2)O1 (centres undefined)	uPA surface inh 6.3µM
CC(C)c1ccc(NC(=O)c2cc3c([nH]c2=O)CC(C)(C)CC3=O)cc1	none (no result: TRPML1 inh, miR-21 reporter, uPA surface inh)
COc1ccc2[nH]c3c(C)c4ccncc4c(C)c3c2c1	miR-21 reporter inconclusive, uPA surface inh 1.8µM (no result: TRPML1 inh, TRPML1 ag)
Cc1c2ccncc2cc2c1[nH]c1ccccc12	none (no result: miR-21 reporter)
O=C(O)c1ccc(N/N=C/c2cc3cc4c(cc3nc2Cl)OCCO4)cc1	uPA surface inh 0.89µM
CC(C(=O)c1ccccc1)[n+]1ccc(Cl)c2ccc(Cl)cc21 (centres undefined)	none (no result: TRPML1 inh, miR-21 reporter, uPA surface inh)
Cc1nnnn1/C(=C\c1ccccc1)C(=O)OCC(=O)NC(C)(C)C	none
Cc1nnnn1/C(=C\c1ccccc1)C(=O)OCC(=O)NC1CCCCC1	uPA surface inh 7.9µM (no result: miR-21 reporter)
CCN(CC)c1ccc(C=C2C(=O)OC3(CCCCC3)OC2=O)cc1	none
CCN(CC)c1ccc(/C=C2/C(=O)c3ccc(C(=O)O)cc3C2=O)cc1	TRPML1 ag 65
COc1ccc(C(=O)NCc2cc(C)nc3ccccc23)cc1	uPA surface inh 7.1µM
COc1cc(C(=O)NCc2cc(C)nc3ccccc23)cc(OC)c1OC	none
COc1cc2cc(C(=O)N3CCOCC3)cc(-c3ccc(C)cc3)c2cc1OC	uPA surface inh 4.5µM (no result: TRPML1 inh, TRPML1 ag)
CN(C)c1ccc(C2=Cc3ccccc3C2)cc1	none (no result: TRPML1 inh, miR-21 reporter, uPA surface inh)
Cc1ccc(N2CCN(S(=O)(=O)c3ccc(F)c(C)c3)CC2)c(C)c1	TRPML1 ag 50
Cc1c(C(=O)OCC2CCCCC2)[nH]c2c1C(=O)CC(c1ccc(F)cc1)C2 (centres undefined)	none (no result: uPA surface inh)
COCCOC(=O)c1[nH]c2c(c1C)C(=O)CC(c1cccs1)C2 (centres undefined)	uPA surface inh 1µM
CCOCCOC(=O)c1[nH]c2c(c1C)C(=O)CC(c1cccs1)C2 (centres undefined)	none
CCOC(=O)c1[nH]c2c(c1C)C(=O)CC(c1ccc(F)cc1)C2 (centres undefined)	uPA surface inh 1.3µM
CCCCNC(=O)[C@@H]1CC=C[C@@H]2CCN(C3CCCCC3)C(=O)[C@@H]21	none (no result: TRPML1 inh, miR-21 reporter, uPA surface inh)
O=C(Nc1nnc(-c2ccc(Cl)cc2)o1)c1nc2ccccc2s1	TRPML1 ag 87
C=CC(=O)Nc1cccc(N(C)c2ccnc(Nc3ccc(N4CCN(C)CC4)cc3)n2)c1	uPA surface inh 10µM (no result: miR-21 reporter)
CCCCN(CCCC)c1ccc(C=Nc2ccc(/C=C/c3ccnc4ccccc34)cc2)cc1C	none (no result: TRPML1 inh, miR-21 reporter, uPA surface inh)
CC(=O)Nc1cccc(C(=O)/C=C/c2ccc(N(C)C)cc2)c1	TRPML1 inh inconclusive, TRPML1 ag 72
CCC(NC(=O)C(C)NC)C(=O)N1CCCC1C(=O)NC1CCCc2ccccc21 (centres undefined)	uPA surface inh 0.4µM (no result: miR-21 reporter)
Cc1ccc2oc(-c3ccc(NC(=O)COc4ccccc4)cc3O)nc2c1	none (no result: TRPML1 inh, miR-21 reporter, uPA surface inh)
COCCCN1C(=O)C(CC(=O)NCc2cccs2)CC(C(=O)N(C)C)=C1C (centres undefined)	none (no result: miR-21 reporter, uPA surface inh)
CCCCN1C(=O)C(CC(=O)NCc2cccs2)CC(C(=O)N(C)C)=C1C (centres undefined)	TRPML1 inh -53 (no result: miR-21 reporter, uPA surface inh)
CC(=O)N1c2ccccc2N(Cc2ccc(C)cc2C)C(=O)C1(C)C	uPA surface inh 7.1µM
CCCC(=O)N(C)c1ccc(/C=C2\C=Cc3ccccc32)cc1	none (no result: TRPML1 inh, miR-21 reporter, uPA surface inh)
Cc1ccc(S(=O)(=O)Nc2cc(C(F)(F)F)ccc2N2CCOCC2)cc1	TRPML1 ag inconclusive
Cc1ccc(S(=O)(=O)Nc2cc(C(F)(F)F)ccc2N2CCOCC2)c(C)c1	TRPML1 ag 64
O=C(C[N+]1(CCO)CCOCC1)c1ccc2ccccc2c1	none (no result: TRPML1 inh, miR-21 reporter, uPA surface inh)
COC(=O)c1cc(=O)n(CCc2ccc(OC)c(OC)c2)c(=Nc2ccc(F)c(Cl)c2)s1	uPA surface inh 6.3µM
COC(=O)c1cc(=O)n(Cc2ccco2)c(=Nc2ccc(F)cc2)s1	uPA surface inh inconclusive
COC(=O)c1cc(=O)n(Cc2ccc(OC)c(OC)c2)c(=Nc2ccc(F)cc2)s1	uPA surface inh 4.5µM
COC(=O)c1cc(=O)n(Cc2ccc(F)cc2)c(=Nc2ccccc2)s1	uPA surface inh 7.1µM
COC(=O)c1cc(=O)n(-c2ccccc2)c(=Nc2ccccc2)s1	uPA surface inh 4.5µM
CNC(=O)C1CC(=O)N(CCc2ccc(OC)c(OC)c2)C(=Nc2ccc(F)cc2)S1 (centres undefined)	none
CCc1ccc(-c2nc3c(=O)n(C)c(=O)nc-3n(CC)n2)cc1	none (no result: TRPML1 inh, miR-21 reporter, uPA surface inh)
C#CCN(C1CCCC1)S(=O)(=O)C=C	none (no result: TRPML1 inh, miR-21 reporter, uPA surface inh)
COc1cc(-c2noc(C)c2-c2ccc3[nH]ccc3c2)cc(OC)c1OC	uPA surface inh 0.56µM
O=C(C[n+]1ccc2ccccc2c1)c1ccc(F)cc1	none (no result: TRPML1 inh, miR-21 reporter, uPA surface inh)
COc1cc(C(=O)NCC(=O)N2CCN(S(=O)(=O)c3cc(C)ccc3C)CC2)cc(OC)c1OC	uPA surface inh 2.2µM
Cc1ccc(C)c(S(=O)(=O)N2CCN(C(=O)CCNC(=O)c3ccc(Br)cc3)CC2)c1	none (no result: miR-21 reporter)
Oc1ccc(/C=N/NC(=S)Nc2cccnc2)cc1	uPA surface inh 4µM
Cc1nc([N+](=O)[O-])c(Br)n1Cc1ccccc1	uPA surface inh 10µM
CCOc1ccccc1C1C(C(=O)N2CCCCC2)=C(C)Nc2nc3ccccc3n21 (centres undefined)	none (no result: uPA surface inh)
COc1cc(N=Nc2ccccc2C(=O)O)ccc1O	none
COc1cc(N=Nc2ccc3ccccc3c2)ccc1O	uPA surface inh 3.2µM
COc1ccc(OC)c(/C=N/Nc2nncn2/N=C/c2cc(OC)ccc2OC)c1	uPA surface inh 10µM
COc1cc(/C=N/Nc2nncn2/N=C/c2ccc(O)c(OC)c2)ccc1O	none
COc1ccc(CC(=O)NO)cc1OC	none (no result: TRPML1 inh, miR-21 reporter, uPA surface inh)
CCN(CC)c1cc(C)c(/C=C/c2ccnc3ccccc23)cc1C	none (no result: TRPML1 inh, miR-21 reporter, uPA surface inh)
COc1cc2oc(=O)ccc2cc1-c1c(OC)ccc2ccc(=O)oc12	uPA surface inh 8.9µM (no result: miR-21 reporter)
CC1=C(C(=O)OCc2ccccc2)N2C(=O)[C@@H](NC(=O)OCc3ccccc3)[C@H]2SC1	none (no result: TRPML1 inh, miR-21 reporter, uPA surface inh)
Cc1ccc(C#N)c(SCC(=O)Nc2nccs2)n1	uPA surface inh 6.3µM
Cc1cc(C(=O)N/N=C/c2ccc([N+](=O)[O-])o2)c(C)o1	miR-21 reporter inconclusive, uPA surface inh 10µM
CN(C)C1CCC(CC2CCc3ccccc32)CC1 (centres undefined)	none (no result: TRPML1 inh, miR-21 reporter, uPA surface inh)
COC(=O)[C@H](CCSC)NC(=O)Cn1cnc(C(=O)Nc2ccc(C)c(C)c2)n1	uPA surface inh 10µM (no result: miR-21 reporter)
O=C(N/N=C/c1cc(Cl)ccc1O)c1ccccc1Br	uPA surface inh 4.5µM
O=C(CNC(=O)c1ccccc1Br)N/N=C/c1cc(Br)ccc1O	uPA surface inh inconclusive
COc1ccc(-c2n[nH]c3c2CN(C(=O)c2ccc(OC)c(OC)c2)CC3)cc1	uPA surface inh 3.2µM
Nc1c(N=Nc2ccc([N+](=O)[O-])cc2)c(S(=O)(=O)O)cc2cc(S(=O)(=O)O)c(/C=C/c3ccccc3)c(O)c12	none (no result: TRPML1 inh, miR-21 reporter, uPA surface inh)
C=C1C=C(C(F)F)n2ncc(C(=O)Nc3ccc(Br)cc3C(F)(F)F)c2N1	none (no result: TRPML1 inh, miR-21 reporter, uPA surface inh)
O=C1c2cc([N+](=O)[O-])ccc2-c2ncccc21	TRPML1 inh -57

Screens deposited in PubChem BioAssay by National Center for Advancing Translational Sciences (NCATS).
